Test results published in publication PMC8424648 (Cell Reports, 2021).

Chains of the proteins cited; added tags and fusions are not shown. Residues count along the entry.
UniProt P41594, 21-1212: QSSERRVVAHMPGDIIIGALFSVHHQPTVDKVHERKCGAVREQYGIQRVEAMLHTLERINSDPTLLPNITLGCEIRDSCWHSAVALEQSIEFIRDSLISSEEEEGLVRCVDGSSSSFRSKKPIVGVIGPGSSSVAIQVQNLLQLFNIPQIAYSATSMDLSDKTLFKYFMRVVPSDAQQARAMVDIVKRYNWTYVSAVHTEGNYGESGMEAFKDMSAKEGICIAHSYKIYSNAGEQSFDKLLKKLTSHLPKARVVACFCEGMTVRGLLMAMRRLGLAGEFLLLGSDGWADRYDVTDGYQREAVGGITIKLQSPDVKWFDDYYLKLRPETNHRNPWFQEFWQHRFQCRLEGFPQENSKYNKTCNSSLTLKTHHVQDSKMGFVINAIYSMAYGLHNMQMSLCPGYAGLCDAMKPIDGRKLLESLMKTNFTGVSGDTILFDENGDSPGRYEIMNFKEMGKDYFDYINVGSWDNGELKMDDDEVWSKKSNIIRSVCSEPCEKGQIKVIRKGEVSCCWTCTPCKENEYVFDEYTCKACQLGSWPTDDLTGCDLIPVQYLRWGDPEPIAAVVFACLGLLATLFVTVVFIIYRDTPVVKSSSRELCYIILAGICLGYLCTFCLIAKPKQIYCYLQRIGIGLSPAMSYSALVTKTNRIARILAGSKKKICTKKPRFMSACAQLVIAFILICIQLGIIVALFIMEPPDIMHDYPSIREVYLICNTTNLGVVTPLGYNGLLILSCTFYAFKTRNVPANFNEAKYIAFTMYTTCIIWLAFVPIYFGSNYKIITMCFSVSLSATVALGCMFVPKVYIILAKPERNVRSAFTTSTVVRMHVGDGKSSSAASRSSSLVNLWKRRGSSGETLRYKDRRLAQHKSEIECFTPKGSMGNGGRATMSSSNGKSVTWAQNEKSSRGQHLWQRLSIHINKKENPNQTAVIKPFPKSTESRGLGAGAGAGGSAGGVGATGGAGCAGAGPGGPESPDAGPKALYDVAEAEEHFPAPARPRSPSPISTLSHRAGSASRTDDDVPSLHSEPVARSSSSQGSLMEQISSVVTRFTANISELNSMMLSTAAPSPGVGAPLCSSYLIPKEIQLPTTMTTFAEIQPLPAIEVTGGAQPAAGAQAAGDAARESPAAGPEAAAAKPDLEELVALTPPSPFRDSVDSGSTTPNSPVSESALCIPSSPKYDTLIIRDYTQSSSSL
UniProt P41594, 21-856 T742A/S753A/T777A/I799A/A813L limits assumed: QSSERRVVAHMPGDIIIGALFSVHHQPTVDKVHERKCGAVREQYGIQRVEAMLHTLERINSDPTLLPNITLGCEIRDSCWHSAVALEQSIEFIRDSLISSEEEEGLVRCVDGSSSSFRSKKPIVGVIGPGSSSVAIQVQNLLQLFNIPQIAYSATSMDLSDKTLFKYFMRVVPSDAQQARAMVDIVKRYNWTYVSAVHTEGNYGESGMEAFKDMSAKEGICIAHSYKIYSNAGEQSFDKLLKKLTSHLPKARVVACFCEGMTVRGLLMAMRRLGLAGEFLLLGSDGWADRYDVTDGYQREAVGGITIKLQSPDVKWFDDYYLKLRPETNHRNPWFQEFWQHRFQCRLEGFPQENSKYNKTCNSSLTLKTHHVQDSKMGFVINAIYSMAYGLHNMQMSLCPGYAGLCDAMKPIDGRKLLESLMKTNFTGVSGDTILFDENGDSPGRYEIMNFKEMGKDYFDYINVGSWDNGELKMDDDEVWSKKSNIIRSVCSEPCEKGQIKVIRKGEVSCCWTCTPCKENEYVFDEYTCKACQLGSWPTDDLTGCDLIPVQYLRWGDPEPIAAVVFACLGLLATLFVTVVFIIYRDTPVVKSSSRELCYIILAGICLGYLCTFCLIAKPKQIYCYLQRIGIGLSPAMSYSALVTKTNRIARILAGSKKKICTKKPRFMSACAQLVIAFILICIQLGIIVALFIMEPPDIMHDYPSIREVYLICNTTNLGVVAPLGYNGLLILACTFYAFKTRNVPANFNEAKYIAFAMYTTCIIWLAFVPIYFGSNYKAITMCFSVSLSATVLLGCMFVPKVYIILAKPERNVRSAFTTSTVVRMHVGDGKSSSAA

Columns and labels:
mGlu5 WT receptor = mGlu5 WT receptor (Homo sapiens, UniProt P41594); assay: IP1 accumulation assay, mGlu5 WT; format: cell-based
mGlu5-5M = mGlu5-5M (Homo sapiens, UniProt P41594, A813L/I799A/S753A/T742A/T777A); assay: cell-based

- IC50 (mGlu5 WT receptor): 22.9 nM
- IC50 (mGlu5-5M): 2.19 nM
SMILES: Cc1cccc(C#Cc2ccccc2)n1 [MPEP, 2-Methyl-6-(phenylethynyl) pyridine]
